## CycPeptMPDB entries from one study

PAMPA is the parallel artificial membrane permeability assay, which has no cells and reads passive diffusion. Permeability is given as log10 of P in cm/s; higher (less negative) is more permeable.

CC(C)C[C@@H]1NC(=O)[C@@H](CC(C)C)NC(=O)[C@@H](CC(C)C)NC(=O)[C@H]2CCCN2C(=O)[C@H](Cc2ccc(O)cc2)NC(=O)[C@@H](CC(C)C)NC1=O is reported with PAMPA -5.14 (log10 cm/s).
CC(C)C[C@@H]1NC(=O)[C@H](CC(C)C)NC(=O)[C@@H](CC(C)C)NC(=O)[C@H]2CCCN2C(=O)[C@H](Cc2ccc(O)cc2)NC(=O)[C@@H](CC(C)C)NC1=O is reported with PAMPA -5.11 (log10 cm/s).
CC(C)C[C@@H]1NC(=O)[C@@H](CC(C)C)NC(=O)[C@H]2CCCN2C(=O)[C@H](Cc2ccc(O)cc2)NC(=O)[C@@H](CC(C)C)NC(=O)[C@@H](CC(C)C)NC1=O is reported with PAMPA -5.31 (log10 cm/s).
CC(C)C[C@@H]1NC(=O)[C@H](CC(C)C)NC(=O)[C@@H](CC(C)C)NC(=O)[C@H]2CCCN2C(=O)[C@H](Cc2ccc(O)cc2)NC(=O)[C@H](CC(C)C)NC1=O is reported with PAMPA -5.59 (log10 cm/s).
CC(C)C[C@H]1NC(=O)[C@H]2CCCN2C(=O)[C@H](Cc2ccc(O)cc2)NC(=O)[C@@H](CC(C)C)NC(=O)[C@@H](CC(C)C)NC(=O)[C@@H](CC(C)C)NC1=O is reported with PAMPA -5.54 (log10 cm/s).
CC(C)C[C@@H]1NC(=O)[C@@H](CC(C)C)NC(=O)[C@H](CC(C)C)NC(=O)[C@@H](CC(C)C)NC(=O)[C@H]2CCCN2C(=O)[C@H](Cc2ccc(O)cc2)NC1=O is reported with PAMPA -5.77 (log10 cm/s).
CC(C)C[C@@H]1NC(=O)[C@@H](CC(C)C)NC(=O)[C@@H](CC(C)C)NC(=O)[C@@H](CC(C)C)NC(=O)[C@H]2CCCN2C(=O)[C@H](Cc2ccc(O)cc2)NC1=O is reported with PAMPA -5.64 (log10 cm/s).
CC(C)C[C@@H]1NC(=O)[C@H](CC(C)C)NC(=O)[C@@H](CC(C)C)NC(=O)[C@@H](CC(C)C)NC(=O)[C@H]2CCCN2C(=O)[C@H](Cc2ccc(O)cc2)NC1=O is reported with PAMPA -5.78 (log10 cm/s).

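Conditions beyond the assay type are not listed; see the original paper. The list need not hold all peptides of the study. Entries at the database's floor value (log10 P of -10) are not listed.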

Data: CycPeptMPDB; original report doi:10.1021/acs.jcim.9b00217.